Assay results from US8178560B2.

Sequences of proteins named here, by UniProt entry; tags and fusion partners are left off.
UniProt Q8NER1, whole entry: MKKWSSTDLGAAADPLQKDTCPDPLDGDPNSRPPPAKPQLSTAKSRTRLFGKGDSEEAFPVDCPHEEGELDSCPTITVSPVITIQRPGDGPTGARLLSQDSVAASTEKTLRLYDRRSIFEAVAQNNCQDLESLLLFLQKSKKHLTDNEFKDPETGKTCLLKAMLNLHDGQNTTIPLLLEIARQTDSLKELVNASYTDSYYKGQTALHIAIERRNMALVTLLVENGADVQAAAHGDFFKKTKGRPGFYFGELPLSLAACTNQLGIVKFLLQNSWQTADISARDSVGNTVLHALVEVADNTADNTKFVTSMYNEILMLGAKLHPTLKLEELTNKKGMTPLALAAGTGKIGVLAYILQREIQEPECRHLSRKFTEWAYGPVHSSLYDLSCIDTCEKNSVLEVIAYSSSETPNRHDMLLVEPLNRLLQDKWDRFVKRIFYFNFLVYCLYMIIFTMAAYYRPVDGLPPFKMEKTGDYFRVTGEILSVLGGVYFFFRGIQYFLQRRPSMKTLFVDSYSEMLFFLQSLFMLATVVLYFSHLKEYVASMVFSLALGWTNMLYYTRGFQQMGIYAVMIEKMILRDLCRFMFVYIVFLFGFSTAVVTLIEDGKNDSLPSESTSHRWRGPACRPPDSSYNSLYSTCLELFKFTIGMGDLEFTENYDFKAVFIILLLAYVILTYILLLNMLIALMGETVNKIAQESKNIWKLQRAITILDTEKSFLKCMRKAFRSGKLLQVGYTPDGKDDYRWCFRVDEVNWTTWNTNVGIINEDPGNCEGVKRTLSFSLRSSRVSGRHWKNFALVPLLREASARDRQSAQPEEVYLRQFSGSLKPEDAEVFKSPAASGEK

Legend:
human VR1 [1] = biological target: T1, human VR1 (Homo sapiens, UniProt Q8NER1); assay: pH-based assay of VR1 inhibition (FLIPR, Fluo-4 calcium, HEK293-EcR cells induced with PonA); details: agonist buffer giving pH 5.5, HEK293-EcR cells expressing human VR1
Description: (§1) Human VR1 Cloning: Human spinal cord RNA (commercially available from Clontech, Palo Alto, Calif.) was used. Reverse transcription was conducted on 1.0 μg total RNA using Thermoscript Reverse Transcriptase (commercially available from Invitrogen, Carlsbad, Calif.) and oligo dT primers as detailed in its product description. Reverse transcription reactions were incubated at 55° C. for 1 h, heat-inactivated at 85° C. for 5 min, and RNase H-treated at 37° C. for 20 min.
(§2) Human VR1 cDNA sequence was obtained by comparison of the human genomic sequence, prior to annotation, to the published rat sequence. Intron sequences were removed and flanking exonic sequences were joined to generate the hypothetical human cDNA. Primers flanking the coding region of human VR1 were designed as follows: forward primer, […] (SEQ ID NO:1); and reverse primer, […] (SEQ ID NO:2). […]
(§3) Generation of Inducible Cell Lines: Unless noted otherwise, cell culture reagents were purchased from Life Technologies of Rockville, Md. […] On the day of assay, cells were loaded with Fluo-4 (a calcium-sensitive dye that is commercially available from Molecular Probes, Eugene, Oreg.) and CAP-mediated calcium influx was measured using a FLIPR as described below. […]

human VR1 [2] = biological target: T1, human VR1; assay: Capsaicin-based assay of VR1 inhibition (FLIPR, Fluo-4 calcium, HEK293-EcR cells induced with PonA); details: activation by capsaicin (400 nM), HEK293-EcR cells expressing human VR1
Description: as §1, §2, §3

CC(C)(C)c1ccc(NC(=O)N2CC=C(c3nccnc3Cl)CC2)cc1 showed a pIC50 (human VR1 [1]) of 6.13 and a pIC50 (human VR1 [2]) of 7.72.

pIC50: −log10 of the molar value.
